The chains behind the UniProt entries cited, without tags or fusion partners. Residues count along the entry.
UniProt P09483, 31-630: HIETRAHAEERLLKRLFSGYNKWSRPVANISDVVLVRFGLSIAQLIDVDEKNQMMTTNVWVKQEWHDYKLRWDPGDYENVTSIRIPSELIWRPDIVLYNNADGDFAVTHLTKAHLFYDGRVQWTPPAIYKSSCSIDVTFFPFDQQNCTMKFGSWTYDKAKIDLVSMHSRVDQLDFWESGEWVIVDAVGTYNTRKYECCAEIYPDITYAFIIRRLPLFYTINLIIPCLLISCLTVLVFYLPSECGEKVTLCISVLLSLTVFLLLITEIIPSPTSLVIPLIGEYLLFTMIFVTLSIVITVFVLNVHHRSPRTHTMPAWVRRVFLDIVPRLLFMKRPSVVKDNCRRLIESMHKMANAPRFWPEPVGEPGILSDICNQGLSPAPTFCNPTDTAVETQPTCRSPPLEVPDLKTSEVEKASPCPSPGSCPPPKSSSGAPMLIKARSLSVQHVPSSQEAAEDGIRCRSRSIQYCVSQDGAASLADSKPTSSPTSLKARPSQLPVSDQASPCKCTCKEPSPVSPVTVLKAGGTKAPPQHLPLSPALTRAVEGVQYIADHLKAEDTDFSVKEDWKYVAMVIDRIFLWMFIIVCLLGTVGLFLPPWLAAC
UniProt P12390, 25-500: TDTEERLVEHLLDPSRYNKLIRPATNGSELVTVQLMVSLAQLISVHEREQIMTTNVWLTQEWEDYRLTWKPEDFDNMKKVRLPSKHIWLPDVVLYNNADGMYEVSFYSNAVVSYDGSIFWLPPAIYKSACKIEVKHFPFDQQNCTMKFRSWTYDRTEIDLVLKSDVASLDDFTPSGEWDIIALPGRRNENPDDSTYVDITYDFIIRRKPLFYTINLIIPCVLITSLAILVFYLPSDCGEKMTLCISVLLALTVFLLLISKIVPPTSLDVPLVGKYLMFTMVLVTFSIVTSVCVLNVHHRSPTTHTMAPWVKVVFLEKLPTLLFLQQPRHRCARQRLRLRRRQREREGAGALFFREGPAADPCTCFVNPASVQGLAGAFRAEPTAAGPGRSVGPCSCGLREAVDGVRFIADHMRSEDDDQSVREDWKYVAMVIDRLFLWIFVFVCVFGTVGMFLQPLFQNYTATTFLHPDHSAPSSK

In US5811442A, “Pharmaceutical compositions for the treatment of conditions associated with decreased blood flow” (priority 1997, dated 1998):

Target: T1, α4β2 receptor subtypes (Rattus norvegicus, UniProt P09483+P12390)
T1 construct: from tissue
Experiment: Determination of Binding to Relevant Receptor Sites
Source text: Receptor binding constants provide a measure of the ability of the compound to bind to relevant receptor sites of certain cells of the patient.
Determination of Binding to Relevant Receptor Sites

Compound | Ki (calculated from IC50 values using the method of Cheng et al., read-out: Ki) | Ki
COc1cncc(/C=C/CCN)c1 [Sample No. 4, (E)-4-[3-(5-methoxypyridin)yl]-3-buten-1-amine monofumarate] | 150 nM | 
CNCC/C=C/c1cncnc1 [Sample No. 11, (E)-N-methyl-4-(5-pyrimidinyl)-3-buten-1-amine] |  | 85 nM

Where two headings read alike, the source gives them in different places.
